Values quoted from earlier work in patent publication US20070105793A1, “Compositions and methods using nicotinic acid for treatment of hypercholesterolemia, hyperlipidemia nd cardiovascular disease” (priority 2005, published 2007).

Tested on: β-thromboglobulin
Conditions: in vivo

CC(C)(CO)[C@@H](O)C(=O)NCCC(=O)NCCSSCCNC(=O)CCNC(=O)[C@H](O)C(C)(C)CO [Pantethine, pantethine]
effect on β-thromboglobulin: lowers β-thromboglobulin
